The assay concerns the target serotonin (5-HT) uptake site (Rattus norvegicus, UniProt P31652). Nature of the assay: biochemical. The settings on record: Binding IC50 Values (nM) 5-HT Uptake, rat cerebral cortex. How it is done: IC50 values (concentration required to inhibit 50% specific binding) were then determined by nonlinear regression analysis of the curves and tabulated below.
The mark [1] stands for this setting: single value or first value before slash.

Protein sequences, listed by entry. Tags and fused reporters are not part of them.
UniProt P31652, whole entry: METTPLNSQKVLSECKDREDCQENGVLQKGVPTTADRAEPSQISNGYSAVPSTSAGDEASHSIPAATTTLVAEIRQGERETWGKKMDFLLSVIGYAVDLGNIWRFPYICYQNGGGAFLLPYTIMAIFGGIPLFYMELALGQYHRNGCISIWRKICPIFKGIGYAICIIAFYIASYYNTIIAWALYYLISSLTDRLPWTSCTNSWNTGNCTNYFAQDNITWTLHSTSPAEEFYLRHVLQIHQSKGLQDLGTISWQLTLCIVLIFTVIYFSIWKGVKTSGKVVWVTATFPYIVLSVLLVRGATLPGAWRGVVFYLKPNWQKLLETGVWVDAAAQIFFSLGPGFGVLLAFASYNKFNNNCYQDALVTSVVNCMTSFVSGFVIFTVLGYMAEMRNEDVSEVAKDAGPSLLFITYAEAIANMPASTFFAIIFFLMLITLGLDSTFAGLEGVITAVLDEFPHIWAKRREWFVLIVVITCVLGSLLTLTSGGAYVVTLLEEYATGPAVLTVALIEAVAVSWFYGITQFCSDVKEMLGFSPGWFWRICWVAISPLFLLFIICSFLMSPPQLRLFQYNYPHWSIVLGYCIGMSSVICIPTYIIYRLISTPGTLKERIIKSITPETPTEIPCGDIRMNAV

In general, IC50 refers to the midpoint of a concentration-inhibition curve. High values mean lower potency, low ones higher potency. Take `CC(C)C[C@H](N)C1(c2ccc(Cl)cc2)CCC1` [(S)-DDMS, 1-[1-(4-chlorophenyl)cyclobutyl]-3-methyl-butylamine]: the IC50 under setting [1] worked out at 4.3 nM.

Take `CC(C)CC(N)C1(c2ccc(Cl)cc2)CCC1` (racemic) [(R/S)-DDMS]: the IC50 is 63 nM under setting [1] and 14 nM (second value after slash, second value after slash, not explained).
